# Reference: patent US8618275B2, “Efficient cell culture system for hepatitis C virus genotype 5A” (Hvidovre Hospital, priority 2007, dated 2013)
# Tested on: SA13/JFH1C3405G-A3696G (5a/JFH1) infected Huh7.5 cells
# Test: Treatment of 5a/JFH1 infected cell cultures with interferon-α
# Type: cell-based, hepatitis C virus
# Conditions: 500 IU/mL
substance,measurement,setting,value
"IFN-α: antiviral drug IFN-α 2b, constituent of the combination therapy against HCV",percent infected cells,"start at 90% infected cells, within 10 days",below 5%
same,percent infected cells,within the first 3 days of treatment,decreased dramatically
